## AlphaSeq binding of Ab-14 heavy chain variants to a spike HR2 peptide

From the AlphaSeq antibody data of Engelhart et al. 2022 (doi:10.1038/s41597-022-01779-4), copy in the FLAb collection.

Target: peptide PDVDLGDISGINAS, taken from heptad repeat 2 (HR2) of SARS-CoV-2 spike.

Ab-14 is the parent antibody, in scFv form: VH, then a (GGGGS)3 linker, then VL. The light chain is unchanged in all variants.
VH: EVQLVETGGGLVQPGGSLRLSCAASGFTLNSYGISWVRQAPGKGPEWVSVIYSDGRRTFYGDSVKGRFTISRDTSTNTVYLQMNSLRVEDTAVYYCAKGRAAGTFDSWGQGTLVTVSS
VL: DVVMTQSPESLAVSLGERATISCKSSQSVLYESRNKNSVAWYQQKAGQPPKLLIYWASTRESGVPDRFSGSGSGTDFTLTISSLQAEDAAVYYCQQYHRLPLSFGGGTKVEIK

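Phage display of a naive human antibody library on the peptide gave the parent. Library AAYL49 holds single substitutions and randomly drawn double and triple substitutions in the CDRs. The assay is AlphaSeq: two haploid yeast populations carry antibody and antigen on their surface. Binding brings cells together so that they mate, and sequencing counts the barcode pairs among the diploids. Each replicate has its own calibration line, from reference interactions of the BCL2 family. Each pool was mated in three replicate cultures.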

Variants are written as CDR1, CDR2 and CDR3 of the heavy chain (limits as in the source). Parent: GFTLNSYGIS, VIYSDGRRTFYGDSVK, GRAAGTFDS. Scale: log10 of Kd in nM, estimated from mating counts; low values are strong binders. An entry "n.d." has no value in the source: the pair was not observed among the diploids in that replicate. This suggests poor binding but is not conclusive. For reference, the parent read 0.65 as the reference entry and 4.11 (one replicate of three) as a member of this library.

| # | CDR-H1 | CDR-H2 | CDR-H3 | log10 Kd (nM) by replicate | control signals |
|---|---|---|---|---|---|
| 1 | GFTLNWYMIR | VIYSDGRRTFYGDSVK | GRAAGTFDS | n.d. n.d. 3.19 | 0/9 |
| 2 | MFTLKSYGIS | VIYHDGRRTFYGDSVK | GRAAGTFDS | n.d. n.d. n.d. | 1/9 (4.34) |
| 3 | GFTKNSYGIS | VMYSDGRRTFYGDSVK | GRAAGTFDS | n.d. n.d. n.d. | 0/9 |
| 4 | GFTLNSYGIS | VIYSDGRRTFYGDSVA | GRHAGMFDS | n.d. n.d. n.d. | 0/9 |
| 5 | GFTLNSYGIS | VIYSDGRRTFYGDSVS | GRAAATNDS | 3.02 2.67 2.65 | 2/9 (3.87) |
| 6 | GFTLLSYGIS | VIYSDGRRTFYGDSVI | GRAALTFDS | 5.76 3.90 3.69 | 2/9 (4.21) |
| 7 | GFTLNSYGIN | VIYSDGRRTRYGDSTK | GRAAGTFDS | n.d. n.d. n.d. | 3/9 (4.02) |
| 8 | GFTLNSYGIF | VIYSDGRRTFYGDSVK | GRSAGTFDS | 4.15 5.37 4.67 | 6/9 (4.98) |
| 9 | GFTLNSYGNS | VIYQDGRRTFYGDSVK | GYAAGTFDS | n.d. n.d. n.d. | 3/9 (3.64) |
| 10 | GFTLNSYGTS | VIYSDGRRTFYRDSVK | GRAAGTFDS | n.d. 3.19 n.d. | 2/9 (3.52) |
| 11 | GFTLNSYPIS | VIASDGRRTFYGDSVK | GRYAGTFDS | n.d. n.d. n.d. | 0/9 |
| 12 | GYTLNSYGYS | VIYSFGRRTFYGDSVK | GRAAGTFDS | n.d. n.d. n.d. | 0/9 |
| 13 | GFTLNSYGIS | VIYSDGRRTFVGDFVK | GRAAGTFTS | n.d. n.d. n.d. | 2/9 (5.09) |
| 14 | GFTLNSSGIS | VIYSDGRRTFYGDIVK | ARAAGTFDS | n.d. n.d. n.d. | 0/9 |
| 15 | GFTLNSYGIS | VIYSDGRREFYGDSVK | GRAVGTFDD | n.d. n.d. n.d. | 1/9 (4.16) |
| 16 | GFTLNSYGIS | VNYSDGRRTFYGDSWK | GREAGTFDS | n.d. n.d. n.d. | 0/9 |
| 17 | GFTLNAYGLS | VIYSDGRRTFNGDSVK | GRAAGTFDS | n.d. n.d. n.d. | 0/9 |
| 18 | GFTRNSYGIS | VIYSDMRRTFYGDHVK | GRAAGTFDS | n.d. n.d. n.d. | 0/9 |
| 19 | GFTLNSYGIS | VIWSDGRRRFYFDSVK | GRAAGTFDS | n.d. n.d. 4.85 | 2/9 (3.99) |
| 20 | GFTLNSYGIS | VIYSDGRMTFYGDSVK | RRMAGTFDS | n.d. 4.25 n.d. | 2/9 (4.06) |
| 21 | GFTLNSYGIS | VIYSDGRRTFCGDSHK | KRAAGTFDS | 6.64 5.73 n.d. | 5/9 (4.92) |
| 22 | GFTLNSYGIS | VIYSDGPRTFYGDSVK | QRCAGTFDS | n.d. n.d. n.d. | 2/9 (3.26) |
| 23 | GFTLNSYGIT | VIYSTGRRTFYGDSVC | GRAAGTFDS | 5.82 n.d. n.d. | 4/9 (4.57) |
| 24 | GFTLNSYGIS | VIYSDGVRTFAGDSVK | GRAAGTFDS | 2.48 2.31 2.30 | 1/9 (3.12) |
| 25 | GFTRNSYGIS | VIYSDGRRTFYGDSVK | GRAAGSFDS | n.d. n.d. n.d. | 1/9 (2.51) |
| 26 | GFTDNSCGIS | VIYSDGRRTNYGDSVK | GRAAGTFDS | n.d. n.d. n.d. | 2/9 (4.22) |
| 27 | GFTLNSYGIS | QIYSDGRRFFYGDSVK | GRAAGTHDS | n.d. n.d. n.d. | 0/9 |
| 28 | GFTLNSYHIS | VIYPDGRRTFYGDSVK | GRAAGTFYS | 4.45 n.d. n.d. | 0/9 |
| 29 | GFTLNSYGIS | VPYSDGRRTFYGDSSK | GRADGTFDS | n.d. n.d. n.d. | 0/9 |
| 30 | GFKLNSYGII | VIYSDGRRTFYGDSVK | GRAAGTFDV | n.d. n.d. 3.14 | 3/9 (4.15) |
| 31 | GFTLNAYGIS | VIYSDGRRTFYGDSVC | GRAAGTFGS | 2.75 n.d. n.d. | 2/9 (3.71) |
| 32 | GFTLNSYGIS | VLYSDGRRTFYGDSVK | GRAAGKFDH | n.d. n.d. n.d. | 0/9 |
| 33 | GFTLNSYGIS | VIPSDGRRTFYGDSVK | GIAAGTFGS | n.d. n.d. n.d. | 2/9 (4.05) |
| 34 | YFTLNSNGIS | VIYSDGRRTFYGDSVK | GRAAGTFDS | 1.53 1.49 1.68 | 6/9 (4.34) |
| 35 | GFVLNSYGIS | QIYSDGRRTFYGDSVA | GRAAGTFDS | 4.43 3.72 4.07 | 2/9 (4.27) |
| 36 | GFTLNSYGIY | VIYSDGRRTFYGDLVK | GRAAGTFDS | n.d. n.d. n.d. | 0/9 |
| 37 | GFTLNSYGIS | VEYSDGRRTFRGDSIK | GRAAGTFDS | n.d. n.d. n.d. | 0/9 |
| 38 | GFCLNSYGIS | VIYSDGRRTFYNDSIK | GRAAGTFDS | n.d. 4.54 n.d. | 3/9 (3.63) |
| 39 | GFTLNVYGIS | VIYSDGRRTFYGQSVK | GRAAKTFDS | 3.31 n.d. 3.86 | 1/9 (4.18) |
| 40 | GFTENSYKIR | VIYSDGRRTFYGDSVK | GRAAGTFDS | n.d. n.d. 3.49 | 1/9 (3.40) |
| 41 | GFTLNSYGIS | NIYSDMRRTFYGDSSK | GRAAGTFDS | n.d. n.d. n.d. | 0/9 |
| 42 | GFTLNSYGIS | VIYSDGRRTFSGDSVK | GRPAGTFDS | 4.38 n.d. 4.78 | 6/9 (4.39) |
| 43 | GFTHNSYGFS | VIYSDGRRTFYGDSCK | GRAAGTFDS | 4.20 n.d. 5.16 | 1/9 (4.51) |
| 44 | GTTLNSYGIS | VIYGDGRRTFYDDSVK | GRAAGTFDS | 4.33 3.39 4.91 | 4/9 (5.70) |
| 45 | GFFLNSYGIS | VIYSDGRRTMYGDSVK | GRAAGTFCS | 4.61 4.01 4.93 | 7/9 (4.61) |
| 46 | GFTLNSYGIS | VIYSQGRRTFYGDWVK | GRAAGTFDT | n.d. n.d. n.d. | 0/9 |
| 47 | GFTLNSYGIS | VIYSDCRRTFYGDSGK | GRAAGTFDF | 4.27 n.d. n.d. | 0/9 |
| 48 | GFTLNSYGIS | VIYSRGRRTFCGDSVK | GRAAITFDS | 3.86 n.d. n.d. | 0/9 |
| 49 | GFFLPSYGIS | VIYSDGRRTFYGDSVK | GRAAGTFDS | 4.91 3.26 3.21 | 7/9 (4.96) |
| 50 | GFTLNSYGIS | VIYSDGTRTFYPDSVK | GRAAGMFDS | 5.01 n.d. n.d. | 0/9 |

Again, the first 3 entries without any signal:

CDR-H1,CDR-H2,CDR-H3,log10 Kd (nM) by replicate,control signals
MFTLKSYGIS,VIYHDGRRTFYGDSVK,GRAAGTFDS,n.d. n.d. n.d.,1/9 (4.34)
GFTKNSYGIS,VMYSDGRRTFYGDSVK,GRAAGTFDS,n.d. n.d. n.d.,0/9
GFTLNSYGIS,VIYSDGRRTFYGDSVA,GRHAGMFDS,n.d. n.d. n.d.,0/9

Nonspecific signal, from three strains lacking the peptide, appeared in 15% of pairings of library AAYL49, centred on 4.06 (5% of these signals below 2.83); values are not corrected for it. Also given: how often the same scFv was detected with the empty control strains, with their mean in brackets.